Measured values from patent US4596893A (priority 1985, dated 1986).

Target: spinach chloroplastises (2. photochemical system) (Spinacia oleracea, UniProt P69560)
Assay: Determination of Hill-reaction inhibition
Format: biochemical
Settings: read-out: I50 (concentration belonging to 50% Hill-reaction inhibition); spinach chloroplast suspension, K3Fe(CN)6, 5000 lux for 20 minutes, extinction at 420 nm

## Cc1cc([N+](=O)[O-])cc([N+](=O)[O-])c1O
  IC50: 860 nM
